Earlier results in PMC6542369 (Bioorganic & medicinal chemistry letters, 2017).

Protein sequences, listed by entry. Tags and fused reporters are not part of them.
UniProt P08173, whole entry: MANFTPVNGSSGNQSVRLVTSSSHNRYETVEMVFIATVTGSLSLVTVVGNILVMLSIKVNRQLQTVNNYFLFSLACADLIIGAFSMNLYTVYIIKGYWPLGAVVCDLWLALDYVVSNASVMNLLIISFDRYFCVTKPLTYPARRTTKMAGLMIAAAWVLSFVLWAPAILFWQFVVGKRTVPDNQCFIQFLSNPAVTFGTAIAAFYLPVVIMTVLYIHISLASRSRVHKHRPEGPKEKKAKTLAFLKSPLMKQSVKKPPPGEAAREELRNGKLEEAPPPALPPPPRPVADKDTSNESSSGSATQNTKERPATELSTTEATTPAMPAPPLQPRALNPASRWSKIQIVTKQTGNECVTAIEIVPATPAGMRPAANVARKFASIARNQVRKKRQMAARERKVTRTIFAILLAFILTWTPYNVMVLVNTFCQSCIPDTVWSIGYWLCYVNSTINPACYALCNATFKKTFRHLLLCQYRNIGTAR

Target: hM4 (Homo sapiens, UniProt P08173)
Conditions: read-out: hM4 EC50; previously reported; cited from earlier work

Q: For `Cc1nnc2sc(C(=O)NCc3ccc(S(=O)(=O)C(F)(F)F)cc3)c(N)c2c1C` [VU0476406], which EC50 is on record?
A: 91 nM
